Laboratory results: patent US20230032934A1, “METHOD OF PRODUCING TUMOR-REACTIVE T CELL COMPOSITION USING MODULATORY AGENTS” (Myst Therapeutics, LLC, priority 2019, published 2023)

Columns and labels:
Type in all cases: cell-based, human
[1] = test system: Population 2 cells derived from CRC tumors; assay: Expansion of cells from CRC tumor single cell suspensions in recombinant IL-2; conditions: 300 IU/mL (low) vs 6000 IU/mL (high) recombinant IL-2; SCS from CRC tumors; 14-31 days
Procedure: (§1) Tumors were processed as described in Example 1 to generate 1-8 mm in diameter fragments or SCS cultures, which were then incubated under conditions to expand T cell populations present within the tumor. Cultures were grown under various tested conditions in the presence of recombinant IL-2 as described below in order to assess cellular expansion. Among the conditions that were tested were the effect of the type of culture plate, culture media, and concentration of IL-2 on cell expansion.
Single cell suspensions (SCSs) were obtained by homogenization and enzyme digestion of primary tumors from donor patients with CRC or melanoma. As described in Example 1, cells were cultured in a conventional 6-well plate or a gas-permeable 24-well culture plate. Where possible, multiple conditions from each donor were initiated and averaged (error bars represent ± standard deviation). For 6-well plates, cells were seeded between 250,000 and 1,000,000 cells/mL and for gas-permeable 24-well plates cells were seeded between 5,000 and 750,000 cells/mL. […]
(§2) For all conditions, cell counts were performed approximately every other day using the NC-200 Automated Cell Counter (Chemometec) and samples were collected for fluorescence-activated cell sorting (FACS). […]

[2] = test system: Population 2 cells derived from primary melanoma tumors; assay: Expansion of cells from melanoma tumor fragments in recombinant IL-2; conditions: 300 IU/mL (low) vs 6000 IU/mL (high) recombinant IL-2, 14-31 days
Procedure: as §1
For expansion from tumor fragments, an individual 1-8 mm tumor fragment, obtained as described in Example 1 from primary tumors of donor patients with CRC or melanoma, was placed in a well of a gas-permeable 24-well culture plate or a 6-well plate, and cultured in either RPMI containing 5% human serum or serum free OpTmizer medium with recombinant IL-2 supplemented at a concentration of 300 IU/mL or 6000 IU/mL. The media also contained gentamicin at 10 μg/ml, and a final concentration of 2.0 mM of a L-alanyl-L-glutamine dipeptide form of glutamine (GlutaMAX Supplement; Thermofisher). […]
as §2

[3] = test system: cells processed from melanoma tumor fragments; assay: Anti-CD3 (OKT3) stimulation on expansion of melanoma tumor-derived cells; conditions: Donor 6; OpTmizer media, 300 IU/mL IL-2, absence of anti-CD3 stimulation (-OKT3)
Procedure: Cells processed from melanoma tumor fragments as described in Examples 1 and 2, were cultured in the presence or absence of 50 ng/mL OKT3, a human anti-CD3 monoclonal antibody. Cell cultures were carried out to between 14 and 31 days, such as between 14 and 21 days, in either a conventional 6-well plate or a gas permeable culture plate with RPMI or OpTmizer media. The cultures also were supplemented with 300 or 6000 IU/mL recombinant IL-2, 10 μg/mL gentamicin and a final concentration of 2.0 mM of a L-alanyl-L-glutamine dipeptide form of glutamine (GlutaMAX Supplement; Thermofisher). About 50% of cellular media was exchanged every other day beginning on the 5th day of culture as described previously. Cells were then counted using the NC-200 Automated Cell Counter (Chemometec).

## IL-2: cytokine that supports T cell recovery and proliferation
[1]
  cellular expansion (total cell number, fold expansion): did not result in an appreciably distinct expansion response; also recorded: not observed to be necessary for cellular expansion
[2]
  cellular expansion (total cell number, fold expansion): did not result in an appreciably distinct expansion response; also recorded: not observed to be necessary for cellular expansion
[3]
  fold expansion: 13 fold

“Also recorded” adds a separate entry of the source.
